# Antibody variant affinities, Ab-95 light chain, assay 2

Reference: Engelhart et al. 2022, doi:10.1038/s41597-022-01779-4. File: FLAb, binding data.

The target is the same throughout: PDVDLGDISGINAS, from the HR2 region of SARS-CoV-2 spike.

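Library AAYL52 holds single substitutions and randomly drawn double and triple substitutions in the CDRs. AlphaSeq pools MATa yeast showing the antibodies with MATalpha yeast showing the peptide. Binding brings cells together so that they mate, and sequencing counts the barcode pairs among the diploids. Scores were corrected for input abundance and mapped to Kd with protein pairs of known affinity run in the same pool. There are three technical replicates.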

Parent scFv Ab-95: VH joined to VL by the linker GGGGSGGGGSGGGGS. Changes lie in the light chain CDRs alone.
VH: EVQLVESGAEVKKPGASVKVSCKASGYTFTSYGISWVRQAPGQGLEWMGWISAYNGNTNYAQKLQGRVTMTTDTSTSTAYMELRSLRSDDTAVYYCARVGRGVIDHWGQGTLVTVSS
VL: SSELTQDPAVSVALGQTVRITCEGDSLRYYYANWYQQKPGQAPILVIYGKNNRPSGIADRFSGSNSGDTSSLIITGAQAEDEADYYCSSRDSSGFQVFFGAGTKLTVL

The whole VL of each variant is written out.
The read-out is the apparent dissociation constant on a log10 scale (nM): the lower, the stronger.
A mean of the replicates is given; it leaves out those without a signal.
An entry "n.d." has no value in the source: the pair was not observed among the diploids in that replicate. This suggests poor binding but is not conclusive.
As a blank, each scFv also met three strains without target: over library AAYL52, 28% of these pairings were detected, typically at 3.91 and seldom below 2.90. The control count says in how many pairings with the empty strains this scFv gave a signal, with their mean in brackets.

VL,log10 Kd (nM) by replicate,"log10 Kd (nM), mean",empty controls
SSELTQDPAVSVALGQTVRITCEGYSLRYYYANWYQQKPGQAPILVIYGKNNRPSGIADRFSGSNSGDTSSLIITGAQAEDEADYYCSSRDSSGVQEFFGAGTKLTVL,4.04 4.42 n.d.,4.23,2/9 (3.54)
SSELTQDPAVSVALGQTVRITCEGDSLRYYYAQWYQQKPGQAPILVIYTKNNRPSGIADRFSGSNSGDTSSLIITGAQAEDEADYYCSSRDSSGFQVHFGAGTKLTVL,n.d. 4.16 3.99,4.07,2/9 (4.02)
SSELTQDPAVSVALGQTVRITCEGDSLKYYYSNWYQQKPGQAPILVIYGKNNRPSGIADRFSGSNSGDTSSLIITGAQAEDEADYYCSSRDSIGFQVFFGAGTKLTVL,2.88 3.22 3.13,3.08,0/9
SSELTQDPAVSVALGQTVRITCEGDSLRYYYANWYQQKPGQAPILVIYGKYNRPSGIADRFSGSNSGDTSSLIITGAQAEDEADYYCTIRDSSGFQVFFGAGTKLTVL,3.57 4.83 n.d.,4.20,2/9 (3.77)
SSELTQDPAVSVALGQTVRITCHGDSNRYYYANWYQQKPGQAPILVIYGNNNRPSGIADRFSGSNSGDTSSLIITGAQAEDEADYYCSSRDSSGFQVFFGAGTKLTVL,3.07 2.69 n.d.,2.88,2/9 (3.45)
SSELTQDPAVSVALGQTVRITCKGDSLRYYYANWYQQKPGQAPILVIYRKNNRPSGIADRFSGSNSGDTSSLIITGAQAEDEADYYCSSRDSSGHQVFFGAGTKLTVL,n.d. n.d. n.d.,n.d.,0/9
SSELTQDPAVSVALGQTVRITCEGDSLRYDYANWYQQKPGQAPILVIYGKNNRPSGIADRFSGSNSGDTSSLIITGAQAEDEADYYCSSRDSKCFQVFFGAGTKLTVL,2.68 2.26 1.87,2.27,2/9 (4.55)
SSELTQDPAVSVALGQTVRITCEGVSLRYYYAVWYQQKPGQAPILVIYGKNNRPSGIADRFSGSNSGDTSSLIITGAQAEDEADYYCSSRNSSGFQVFFGAGTKLTVL,n.d. 3.96 n.d.,3.96,2/9 (4.29)
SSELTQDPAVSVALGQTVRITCEGDSLRYYYANWYQQKPGQAPILVIYGKFNSPSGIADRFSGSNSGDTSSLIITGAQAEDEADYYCSSRDWSGFQVFFGAGTKLTVL,3.34 4.62 n.d.,3.98,0/9
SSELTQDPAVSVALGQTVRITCEGDSLRYLYANWYQQKPGQAPILVIYMKNNRVSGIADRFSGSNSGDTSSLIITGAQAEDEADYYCSSRDSSGFQVFFGAGTKLTVL,n.d. 5.54 3.86,4.70,2/9 (4.69)
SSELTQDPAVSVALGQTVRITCEGDSLRYYYINWYQQKPGQAPILVIYGKNNHPSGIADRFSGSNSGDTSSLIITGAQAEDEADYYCSSRLSSGFQVFFGAGTKLTVL,n.d. n.d. n.d.,n.d.,0/9
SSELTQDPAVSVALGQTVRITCEGDSLRYYYANWYQQKPGQAPILVIYGKNNHPSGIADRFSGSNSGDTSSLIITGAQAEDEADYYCLSRDQSGFQVFFGAGTKLTVL,3.18 3.28 3.48,3.31,3/9 (3.78)
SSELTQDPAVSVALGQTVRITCEGDSLRYYYANWYQQKPGQAPILVIYGKNNRPSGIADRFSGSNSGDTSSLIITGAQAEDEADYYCSSRDSSGDQQFFGAGTKLTVL,3.50 n.d. n.d.,3.50,2/9 (3.43)
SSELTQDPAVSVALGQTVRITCEGDSLRYYYNNWYQQKPGQAPILVIYGKNNRPSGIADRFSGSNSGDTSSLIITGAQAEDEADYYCSARDSSGFQVNFGAGTKLTVL,2.74 3.12 n.d.,2.93,0/9

Top 2 of the variants detected in all replicates, tightest first:

VL,log10 Kd (nM) by replicate,"log10 Kd (nM), mean",empty controls
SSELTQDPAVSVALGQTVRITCEGDSLRYDYANWYQQKPGQAPILVIYGKNNRPSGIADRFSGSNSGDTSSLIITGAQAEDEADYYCSSRDSKCFQVFFGAGTKLTVL,2.68 2.26 1.87,2.27,2/9 (4.55)
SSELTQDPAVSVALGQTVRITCEGDSLKYYYSNWYQQKPGQAPILVIYGKNNRPSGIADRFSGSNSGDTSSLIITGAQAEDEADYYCSSRDSIGFQVFFGAGTKLTVL,2.88 3.22 3.13,3.08,0/9